## Measured affinities in a library of Ab-14 heavy chain variants

The measurements come from Engelhart et al. 2022 (doi:10.1038/s41597-022-01779-4) through the FLAb antibody collection.

Target: peptide PDVDLGDISGINAS, taken from heptad repeat 2 (HR2) of SARS-CoV-2 spike.

Each scFv is VH, three GGGGS repeats, VL, as in the parent Ab-14, and differs from it in the CDRs of the heavy chain only.
VH: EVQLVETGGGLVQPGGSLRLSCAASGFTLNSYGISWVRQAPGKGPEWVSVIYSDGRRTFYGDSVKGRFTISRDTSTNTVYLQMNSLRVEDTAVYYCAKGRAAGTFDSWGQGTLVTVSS
VL: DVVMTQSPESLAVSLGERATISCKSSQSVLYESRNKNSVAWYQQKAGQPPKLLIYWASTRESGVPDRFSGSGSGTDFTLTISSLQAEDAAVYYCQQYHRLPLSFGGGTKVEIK

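The parent was found by panning a naive human phage display library on the peptide. The library (AAYL49) carries one to three amino acid substitutions per variant, with no insertions or deletions. Affinity was read by AlphaSeq, a pooled yeast mating assay with surface-displayed partners. Mating (16 h, 30 °C) was followed by selection of diploids and sequencing of their barcodes. The ratio of observed to expected reads was calibrated, replicate by replicate, on BCL2-family standards whose Kd was known from biolayer interferometry. Each pool was mated in three replicate cultures.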

Each variant is given by its three heavy chain CDRs, as the data file delimits them; those of the parent are GFTLNSYGIS, VIYSDGRRTFYGDSVK, GRAAGTFDS. Values are log10 of the apparent Kd in nM; lower means stronger binding. The mean shown is taken over the replicates in which the pair was detected. An entry "nd" has no value in the source: the pair was not observed among the diploids in that replicate. This suggests poor binding but is not conclusive. As a blank, each scFv also met three strains without target: over library AAYL49, 15% of these pairings were detected, typically at 4.06 and seldom below 2.83. For each scFv, signals with the empty controls are counted beside the result, with their mean in brackets.

log10 Kd, replicates	log10 Kd (nM), mean	control signals	CDR-H1	CDR-H2	CDR-H3
4.74 / nd / nd	4.74	5/9 (4.26)	SFTLNSYGIS	VIYSDGRNTFYGDSRK	GRAAGTFDS
3.44 / nd / nd	3.44	0/9	GFTLNSYGSS	VIYSDGRRTFYGDSVD	GRAAGTFDI
nd / 4.45 / nd	4.45	3/9 (4.22)	VFTLNSYEIS	VIYNDGRRTFYGDSVK	GRAAGTFDS
nd / nd / nd	nd	0/9	GFTLNSYGIS	VIYSDGRRTFYGDSAP	GRAAGTFDS
0.33 / 0.85 / 0.26	0.48	0/9	GFTLNSYGIS	VIYSDGRRTFYGDSVK	GYVHGTFDS
nd / nd / nd	nd	1/9 (2.50)	GFTLNSYGIS	VIYSDGRRTFYYDSVK	GVAAGMFDS
nd / nd / nd	nd	2/9 (3.42)	GFTLNSYGIS	SIYSDIRRTFYGDSVK	GRAAGCFDS
nd / nd / nd	nd	0/9	GFTLNSYGIS	VIYSDGRRTFSGDSVK	GRAAGTFDH
4.50 / nd / 4.81	4.65	1/9 (4.39)	GFTLNSYQIS	VIYSDPRRTFYGDSVK	GRAAGTEDS
nd / nd / nd	nd	2/9 (3.57)	WFTLNSYGIS	VIYSDGFRTFYGDSVK	GRAAGWFDS
nd / nd / 4.69	4.69	1/9 (4.98)	GFTLNSYGIS	SIYSDGRRTFYGNSVK	GRAAGTLDS
1.35 / 1.95 / 1.78	1.70	0/9	GQKLNSYGIS	VIYSDGRRTFYGDSVK	GRAAGRFDS
nd / nd / nd	nd	2/9 (3.59)	GFTLNSYGIS	VIYSDTRLTFYGDSQK	GRAAGTFDS
3.82 / nd / nd	3.82	4/9 (4.28)	GFTLNSYGIS	VSYSDGRRTFYGDSVK	GRSAGTFPS
nd / nd / nd	nd	1/9 (4.67)	WQTLNSYGIS	VIYSDGRRTFYGDSVK	GPAAGTFDS
nd / 3.56 / nd	3.56	1/9 (4.00)	GFTNNSYGIS	VIYSDGRRTFYGDSVK	GRAAGPFDS
nd / nd / nd	nd	1/9 (1.83)	GFTLNSDGIS	VIYRDGRRTFYGDSVK	GRAAGFFDS
nd / nd / nd	nd	3/9 (4.20)	GFTLNSYGIS	VIYQDGRRTHYGDSVK	GRAAETFDS
1.91 / 1.66 / 2.19	1.92	6/9 (4.01)	GFTLNSYGIS	VIYSDGRSTAYGDSVK	GIAAGTFDS
nd / nd / 5.29	5.29	3/9 (3.58)	GFTLNSYGIS	VIYSDHRRTFYGDVVK	GRAAGTFWS
nd / nd / nd	nd	1/9 (3.03)	HFTLNSYGIS	HIYSDGRRTFYTDSVK	GRAAGTFDS
nd / nd / nd	nd	0/9	GFTLGSYGIS	VIYPDGRRTKYGDSVK	GRAAGTFDS
nd / nd / 4.76	4.76	1/9 (2.71)	GFTLNSYGIS	TIYSFGRRTFYGDSVK	GRAAGTFES
1.50 / 1.50 / 1.78	1.60	2/9 (4.09)	GFTLNSYGIS	VIYSDGRRTRYSDSVK	GVAAGTFDS
nd / nd / nd	nd	0/9	GVTLNSYNIS	VIYSNGRRTFYGDSVK	GRAAGTFDS
nd / nd / nd	nd	3/9 (4.37)	GFELNSYGIS	VIYSDRRRTFTGDSVK	GRAAGTFDS
nd / nd / 3.30	3.30	2/9 (4.32)	YFTLNSYGIS	VIYSDGRRTFYGDSVK	ERAALTFDS
nd / nd / nd	nd	0/9	GFTLNRYGIS	VIQSDGRRTCYGDSVK	GRAAGTFDS
nd / nd / nd	nd	0/9	GFTLNSYKIP	VIYSDGRRGFYGDSVK	GRAAGTFDS
nd / nd / nd	nd	0/9	GITLNSYGIS	VIYSDGRETFYGDSVK	GRAEGTFDS
nd / 4.21 / nd	4.21	3/9 (4.46)	GFTQNSYGIK	VIYSDGRRTFYGDSVK	GRAAGTFSS
0.26 / 0.61 / 0.57	0.48	0/9	GFQLNSYGIS	VIYSDGQRTFYGDSVK	GRAMGTFDS
nd / nd / nd	nd	1/9 (3.42)	GFTLNSYGIS	VIYSMGRRTFYGDSVK	GRRAGTFDS
nd / nd / nd	nd	0/9	GFTLCSYGIS	VIYSMGRRTFYGDSVK	GRAAGTGDS
nd / nd / nd	nd	1/9 (4.01)	GFTLNSYFIS	VIYSDGRRTFYDDSVK	GRAAGTFDS
3.97 / nd / nd	3.97	0/9	GFTLNSYGIE	VSYTDGRRTFYGDSVK	GRAAGTFDS
nd / nd / nd	nd	0/9	GFTCNSYGIS	VIYSDGTRTFYGESVK	GRAAGTFDS
nd / nd / nd	nd	0/9	GFTLNSYGIS	VGYSDGRRTWYGDSVK	GRAAMTFDS
0.70 / 0.88 / 0.89	0.82	2/9 (4.33)	GFTLNSYGIS	VIYSDGRRTTYADSVK	GRAAETFDS
3.27 / 3.32 / 3.16	3.25	1/9 (4.72)	GFTLHSYGIS	VIYSDGRRTFYGDSVK	GRAPGTFDS
nd / 5.10 / nd	5.10	0/9	GFTLNSYGII	IIGSDGRRTFYGDSVK	GRAAGTFDS
0.48 / 0.56 / 0.68	0.57	1/9 (2.69)	GFTLNSYGIS	VIYSDGMRTFYGDSVK	GREAGTFDS
3.58 / nd / nd	3.58	2/9 (3.20)	GFTQNSYGIS	VIYSDGRRTFYGDSLK	GRAAGTFDC
nd / nd / nd	nd	2/9 (3.36)	GFTANSYGIS	TIYSDGRRTFYGDSVK	GFAAGTFDS
nd / 2.13 / nd	2.13	0/9	GHTLNSYGIS	VVYSDGRRTFYYDSVK	GRAAGTFDS
nd / nd / nd	nd	0/9	GFTLNDYGIS	VIYSDSRRTFYGDSVK	GRKAGTFDS
1.61 / 1.50 / 1.62	1.58	1/9 (3.87)	GMTLNSYGIS	VIYSDGLRTFYGDSVK	GRAAGTFDS
nd / 3.48 / nd	3.48	1/9 (5.34)	GFGLNSYGIS	VIYSDGRRTFYGDSVK	GRATGTFDA
4.88 / nd / nd	4.88	0/9	GFHLNSYGIS	WIYSDGRRTFYGDSVK	ARAAGTFDS
nd / nd / nd	nd	0/9	GFTLNSYLTS	VIYSDGRRTFYGDSVK	GRAAGTFTS
nd / nd / 2.76	2.76	2/9 (2.98)	GFSLNSYGIS	VIYEDGRRTFYGDSVK	GRQAGTFDS

Excerpt, the first 6 entries:

CDR-H1	CDR-H2	CDR-H3	log10 Kd, replicates	log10 Kd (nM), mean	control signals
SFTLNSYGIS	VIYSDGRNTFYGDSRK	GRAAGTFDS	4.74 / nd / nd	4.74	5/9 (4.26)
GFTLNSYGSS	VIYSDGRRTFYGDSVD	GRAAGTFDI	3.44 / nd / nd	3.44	0/9
VFTLNSYEIS	VIYNDGRRTFYGDSVK	GRAAGTFDS	nd / 4.45 / nd	4.45	3/9 (4.22)
GFTLNSYGIS	VIYSDGRRTFYGDSAP	GRAAGTFDS	nd / nd / nd	nd	0/9
GFTLNSYGIS	VIYSDGRRTFYGDSVK	GYVHGTFDS	0.33 / 0.85 / 0.26	0.48	0/9
GFTLNSYGIS	VIYSDGRRTFYYDSVK	GVAAGMFDS	nd / nd / nd	nd	1/9 (2.50)

Parent in this assay: reference entry 0.65, copy in this library 4.11 (one replicate of three).